From article PMC4961847 (2016) come the findings set out here.

This experiment concerns the target T1, PD-L2 ECD (Homo sapiens, UniProt Q9BQ51).
T1 chain: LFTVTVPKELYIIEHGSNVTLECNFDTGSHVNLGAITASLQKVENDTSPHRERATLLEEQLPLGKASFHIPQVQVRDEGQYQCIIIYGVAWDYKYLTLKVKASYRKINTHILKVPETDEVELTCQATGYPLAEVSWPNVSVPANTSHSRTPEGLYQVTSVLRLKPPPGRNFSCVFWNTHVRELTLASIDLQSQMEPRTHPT
As to the kind of experiment: magneto-nanosensor.

B1: PD-1 ECD (protein)
chain: LDSPDRPWNPPTFSPALLVVTEGDNATFTCSFSNTSESFVLNWYRMSPSNQTDKLAAFPEDRSQPGQDCRFRVTQLPNGRDFHMSVVRARRNDSGTYLCGAISLAPKAQIKESLRAELRVTERRAEVPTAHPSPSPRPAGQFQTLV
For B1, the affinity, expressed as Kd, was 4.7 µM.
